DENV2 CPE: inhibitors of DENV2 cytopathic effect; DENV2-infected cells, cytopathic effect rescue, plate reader; CPE inhibition, % at 9.99 µM; 350,000 tested, 1.7% active; AID 651640; in the data active = CPE inhibition above about 20%, passing the limit was not always enough; tested in BHK-21 cells;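 also: 0% = median of neutral control wells and 100% = median of positive control wells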
Cneo AK release: Cryptococcus neoformans lysis via adenylate kinase release | C. neoformans lysis, adenylate kinase release luminescence, 4 h; normalised: neutral wells 0, clomiphene wells 100 | lysis activity, % at 15 µM | 360,000 tested, 0.2% active | AID 651654;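 active = mean lysis activity across replicates of at least 80%, whatever share of replicates individually reach that level; inactive = mean lysis activity below 80%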
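Signal: Adenylate kinase release luminescence | Assay system: Log-phase Cryptococcus neoformans yeast cells | Input: Cells at 5 × 10^6 per mL | Buffer or medium: Fresh YPD growth medium | Compound: Single dose | Schedule: Static 4 h at 37 °C with compound, 1 h detection | Controls: Clomiphene | Read-out: Luminescence rise reflecting yeast cell lysis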
UUG fidelity: modulators of start codon recognition fidelity in yeast; S. cerevisiae UUG-firefly luciferase reporter, luminescence/redox ratio; AID 602363; 350,000 tested, 0.13% active; activity score, % at 18.7 µM;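 active = replicate mean at a twofold rise or more, about +100% in these data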;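 also: firefly luciferase made from a UUG start codon reports start codon fidelity; reporter light over untreated wells divided by growth signal over untreated wells; some hits fall short of that in this replicate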
E-sel inducer: E-selectin induction on HUVECs | P16581 | HUVEC E-selectin immunofluorescence imaging; normalized: neutral wells 0, TNF-alpha wells 100 | activation, % at 7.58 µM | 260,000 tested, 0.37% active;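 active = mean E-selectin-positive cell signal at least 10% of the positive control, reached in at least 60% of replicates, without over 20% cell loss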
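Read-out: % PE-positive cells | Test system: HUVEC | Doses: One compound dose added by pin transfer | Buffer or medium: EGM-2 over gelatin coat | Signal: Immunofluorescence imaging | Benchmarks: TNF-alpha, DMSO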
Active calls of the source: *; · = no result. This is a sample that favours compounds with a hit; in the whole collection about 1.8% have one here.

cpd	smiles	DENV2 CPE	Cneo AK release	UUG fidelity	E-sel inducer
1	C[C@@H]1CCCCO[C@@H](CN(C)S(=O)(=O)c2ccc(F)cc2)[C@@H](C)CN([C@H](C)CO)C(=O)c2cc(NC(=O)Nc3ccc(C(F)(F)F)cc3)ccc2O1	87.6*	9.9	5.8	·
2	Cc1ccc(S(=O)(=O)N(C)C[C@@H]2OCCCC[C@H](C)Oc3ccc(NC(=O)Nc4ccc(C(F)(F)F)cc4)cc3C(=O)N([C@H](C)CO)C[C@@H]2C)cc1	23.0*	-3.1	4.1	·
3	Cc1ccc(S(=O)(=O)N(C)C[C@H]2OCCCC[C@H](C)Oc3ccc(NC(=O)Nc4ccc(C(F)(F)F)cc4)cc3C(=O)N([C@@H](C)CO)C[C@@H]2C)cc1	0.4	-5.7	-17.6	·
4	Cc1ccc(S(=O)(=O)N(C)C[C@@H]2OCCCC[C@@H](C)Oc3ccc(NC(=O)Nc4ccc(C(F)(F)F)cc4)cc3C(=O)N([C@@H](C)CO)C[C@H]2C)cc1	53.1*	-2.6	-14.5	·
5	Cc1ccc(S(=O)(=O)N(C)C[C@H]2OCCCC[C@H](C)Oc3ccc(NC(=O)Nc4ccc(C(F)(F)F)cc4)cc3C(=O)N([C@H](C)CO)C[C@@H]2C)cc1	55.3*	0.0	-15.0	·
6	Cc1ccc(S(=O)(=O)N(C)C[C@H]2OCCCC[C@H](C)Oc3ccc(NC(=O)Nc4ccc(C(F)(F)F)cc4)cc3C(=O)N([C@H](C)CO)C[C@H]2C)cc1	-3.8	-8.2	-18.3	·
7	C[C@H]1CCCCO[C@H](CN(C)S(=O)(=O)c2cn(C)cn2)[C@@H](C)CN([C@@H](C)CO)C(=O)c2cc(NC(=O)CCC(F)(F)F)ccc2O1	6.0	-1.4	11.9	-0.1
8	Cc1ccccc1-c1ccc([C@H]2[C@@H](CO)N3CCCCN(S(=O)(=O)c4cn(C)cn4)C[C@H]23)cc1	2.9	0.7	-5.6	-0.4
9	C[C@@H]1CCCCO[C@@H](CN(C)S(C)(=O)=O)[C@H](C)CN([C@@H](C)CO)C(=O)c2cc(NC(=O)Nc3ccc(C(F)(F)F)cc3)ccc2O1	56.6*	53.2	11.9	-0.2
10	Cc1ccc(S(=O)(=O)N(C)C[C@@H]2OCCCC[C@H](C)Oc3ccc(NC(=O)C4CCCCC4)cc3C(=O)N([C@H](C)CO)C[C@@H]2C)cc1	24.1*	3.8	5.8	0.8
11	C[C@@H]1CCCCO[C@H](CN(C)S(C)(=O)=O)[C@@H](C)CN([C@H](C)CO)C(=O)c2cc(NC(=O)Nc3ccc(C(F)(F)F)cc3)ccc2O1	-1.8	-4.2	-2.6	0.9
12	COc1ccc(S(=O)(=O)N(C)C[C@@H]2OCCCC[C@@H](C)Oc3ccc(NC(=O)Nc4ccc(C(F)(F)F)cc4)cc3C(=O)N([C@H](C)CO)C[C@H]2C)cc1	22.4*	-0.1	-18.3	1.1
13	COc1ccc(S(=O)(=O)N(C)C[C@H]2OCCCC[C@@H](C)Oc3ccc(NC(=O)Nc4ccc(C(F)(F)F)cc4)cc3C(=O)N([C@H](C)CO)C[C@@H]2C)cc1	-10.8	57.7	14.3	0.0
14	CC(C)C#Cc1ccc([C@H]2[C@@H](CO)N(C(=O)c3ccccn3)[C@H]2C#N)cc1	-14.1	3.4	10.0	-0.1
15	C[C@@H]1CCCCO[C@@H](CN(C)Cc2ccc(Cl)c(Cl)c2)[C@H](C)CN([C@H](C)CO)C(=O)c2cc(NC(=O)CCC(F)(F)F)ccc2O1	7.6	39.4	11.9	0.0
16	Cc1ccccc1S(=O)(=O)N1CC(=O)N2[C@H](CO)[C@@H](c3ccc(C#CCN(C)C)cc3)[C@@H]2C1	33.9*	·	·	0.6
17	Cc1ccccc1S(=O)(=O)N1CC(=O)N2[C@H](CO)[C@@H](c3ccc(C#CCN(C)C)cc3)[C@H]2C1	42.7*	·	·	0.0
18	COc1ccc(S(=O)(=O)N(C)C[C@H]2OCCCC[C@H](C)Oc3ccc(NS(=O)(=O)c4cn(C)cn4)cc3C(=O)N([C@H](C)CO)C[C@@H]2C)cc1	0.7	-1.4	·	·
19	COCC(=O)Nc1ccc2c(c1)[C@H]1C[C@@H](CC(=O)NCc3ccccc3)O[C@H](CO)[C@H]1O2	-7.4	-0.6	-7.3	-0.3
20	CN(C)C(=O)C[C@@H]1C=C[C@@H](NC(=O)Nc2cccc(F)c2)[C@@H](CO)O1	5.1	-3.1	-8.1	-0.4
21	Cc1cccc(S(=O)(=O)N2CC[C@@H]3[C@@H](CO)N(C)c4ccc(-c5ccccc5F)cc4[C@@H]32)c1	34.6*	24.8	8.4	-1.0
22	CC1C=NC(S(=O)(=O)N2CC[C@@H]3[C@@H](CO)N(C)c4ccc(-c5ccc(F)cc5)cc4[C@@H]32)=N1 (some centres undefined)	21.3*	7.5	1.4	0.2

Screens from PubChem.
